From patent publication US7910091B2, “System for trapping flying insects with attractant lures” (Woodstream Corporation, priority 2002, dated 2011)

Tests used:
[1] = system: mosquitoes; experiment: Hawaii field test of lactic acid lures in Mosquito Magnet traps, total mosquito catch; format: in vivo, Culex quinquefasciatus Aedes albopictus, et al.
Description: (§1) […] Sample vials containing lactic acid impregnated frits were replaced every 2 days to ensure measurement uniformity. Measured release rates were approximately 4.0 mg/hr to 20 mg/hr. Controls were run with a Professional trap device lacking a lactic acid lure. The number of mosquitoes retained in the catch bag of the insect trapping devices was quantitated for test sample and control runs.
(§2) The comparison between lactic acid/CO2 and CO2 only used as lures in Mosquito Magnet® Professional (PRO) and Liberty traps are shown in Table 8.

[2] = system: A. albopictus; experiment: Hawaii field test of lactic acid lures in Mosquito Magnet traps, A. albopictus catch; format: in vivo, Aedes albopictus
Description: as §1, §2

[3] = cited from earlier work
[4] = PRO trap, January 2002, listed as Liquid lactic acid
[5] = Liberty trap, February to March 2002
[6] = PRO trap, February to March 2002
[7] = PRO trap, January 2002, higher release rate

SMILES	Ratio (lactic acid/CO2), total catch of mosquitoes [1, 4]	Ratio (lactic acid/CO2), catch of A. Albopictus [2, 4]	LD50/oral/mouse [3] [mg/kg]	Ratio (lactic acid/CO2), total catch of mosquitoes [1, 5]	Ratio (lactic acid/CO2), total catch of mosquitoes [1, 6]	Ratio (lactic acid/Octenol), total catch of mosquitoes [1, 6]	Ratio (lactic acid/CO2), total catch of mosquitoes ([1]; PRO trap, January 2002)	Ratio (lactic acid/CO2), total catch of mosquitoes [1, 7]	Ratio (lactic acid/CO2), catch of A. Albopictus [2, 5]	Ratio (lactic acid/CO2), catch of A. Albopictus [2, 6]	Ratio (lactic acid/Octenol), catch of A. Albopictus [2, 6]	Ratio (lactic acid/CO2), catch of A. Albopictus ([2]; PRO trap, January 2002)	Ratio (lactic acid/CO2), catch of A. Albopictus [2, 7]
CC(O)C(=O)O (stereo not drawn) [FCC 88, L(+)-lactic acid, 2-hydroxy-propionic acid]	2.0	5.8	4875	–	–	–	–	–	–	–	–	–	–
CC(O)C(=O)O (stereo not shown) [Solid lactic acid]	–	–	–	1.6	52	2.6	0.8	1.6	12.7	7	4.1	6.4	5.8
